Laboratory results reported in ChEMBL document CHEMBL4138235, “Discovery of aliphatic-chain hydroxamates containing indole derivatives with potent class I histone deacetylase inhibitory activities” (Eur J Med Chem, 2018).

Target: T1, Histone deacetylase 8 (Homo sapiens, UniProt Q9BY41)
T1 sequence (Q9BY41 whole entry): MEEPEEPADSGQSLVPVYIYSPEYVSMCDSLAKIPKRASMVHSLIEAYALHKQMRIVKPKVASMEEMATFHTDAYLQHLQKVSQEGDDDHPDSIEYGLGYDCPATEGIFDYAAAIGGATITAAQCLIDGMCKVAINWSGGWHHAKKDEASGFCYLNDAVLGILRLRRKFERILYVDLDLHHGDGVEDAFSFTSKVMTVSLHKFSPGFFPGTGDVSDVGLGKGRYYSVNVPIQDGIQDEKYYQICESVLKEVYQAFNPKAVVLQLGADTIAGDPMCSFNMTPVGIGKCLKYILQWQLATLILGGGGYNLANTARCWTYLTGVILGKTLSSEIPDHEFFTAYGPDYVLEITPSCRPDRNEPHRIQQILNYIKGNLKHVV
Experiment: Inhibition of C-terminal His-tagged recombinant human HDAC8 (1 to 377 residues) expressed in baculovirus infected Sf9 insect cells using Boc-Lys(TFA)-AMC as substrate preincubated for 5 mins followed by substrate addition measured after 30 mins by fluorescence assay

O=C(CCCCCCC(=O)Nc1ccccc1)NO [VORINOSTAT]
pIC50: 5.47

pIC50: −log10 of the molar value.
